Data published in patent US20050202078A1, “Vesicle-encapsulated corticosteroids for the treatment of cancer” (priority 2002, published 2005).

Assay: Analysis of amount of PLP or PL in tissues by HPLC
Conditions: 24 hours after injection of free PLP

Which “PLP or PL in liver, spleen and tumor tissue” value does the source give for “prednisolone disodium phosphate [free PLP]” here?
The value was “Neither PLP nor PL was detected”.
